Experimental data reported in patent US12616203B2, “Use of 3-isoxazolidinones compounds as selective herbicides” (FMC Corporation, priority 2014, dated 2026).

Test system: weeds; Oilseed rape
Settings: PRE, 28 DAT, rate in the words

| SMILES | weed control / crop safety in words |
| --- | --- |
| CC1(C)CON(Cc2ccc(Cl)cc2Cl)C1=O [2,4-DC, 2-(2,4-dichlorophenyl)methyl-4,4-dimethyl-3-isoxazolidinone] | alone at any rate did not able to control any species except common chickweed |
| COCCN(C(=O)CCl)c1c(C)cccc1C [Dimethachlor, dimethachlor] | controlled only two species, Italian ryegrass and corn poppy |
| Cc1cccc(C)c1N(Cn1cccn1)C(=O)CCl [Metazachlor, metazachlor] | controlled all weeds except tall morningglory and wild mustard |
| CCN(CC)C(=O)C(C)Oc1cccc2ccccc12 (stereo not shown) [napropamide, reference compound] | controlled Italian ryegrass, wild buckwheat, redroot pigweed, common chickweed, and corn poppy |
